Measurements: US10130633B2, “Compounds” (BAYER PHARMA AKTIENGESELLSCHAFT, priority 2013, dated 2018)

How the values were obtained:
[1] = test system: HCT116 FOP control reporter cell line; experiment: HCT116 FOPFlash control reporter assay (FOP control vector, non-functional TCF elements); assay type: cell-based; settings: HCT116 FOP control reporter cells, 36 hours incubation, luciferase expression
Text: In a parallel approach, HCT116 cells were cotransfected with the FOP control vector and pcDNA3. The FOP vector is identical to the TOP construct, but it contains instead of functional TCF elements a randomized, non-functional sequence. For this transfection a stable transfected cell line was generated as well.

wildtype Wnt pathway = experiment: HEK293 TOP reporter assay, wildtype Wnt pathway stimulated with Wnt-3a; assay type: cell-based, human; settings: HEK293 TOP cells, EC50 concentration of recombinant Wnt-3a, 16 hours; read-out: HEK TOP OncoFlash IC50
Protocol: Measurement of luciferase expression was done as described for the constitutive active Wnt assay.
In order to discover and characterize small molecules which inhibit the wildtype Wnt pathway, a cellular reporter assay was employed. […] Stable transfectants were generated by selection with 300 μg/ml Hygromycin.

Q: `COc1ccc(NC(=O)c2ncc(-c3ccccc3)o2)cc1NC(=O)CN1CCOCC1` [Example 20, N-{4-methoxy-3-[(morpholin-4-ylacetyl)amino]phenyl}-5-phenyl-1,3-oxazole-2-carboxamide] was tested. Which IC50 ([1]; Homo sapiens, HCT-116, 36 h) did it give?
A: ≥ 50 µM

Q: What about the IC50 (wildtype Wnt pathway) of the same compound?
A: 2.2 µM

Q: Which IC50 ([1]; Homo sapiens, HCT-116, 36 h) does the source give for `CN1CCN(CC(=O)Nc2cc(C(=O)Nc3nnc(-c4cccc(Cl)c4)s3)ccc2OC(F)(F)F)CC1` [Example 151, N-[5-(3-chlorophenyl)-1,3,4-thiadiazol-2-yl]-3-{[(4-methylpiperazin-1-yl)acetyl]amino}-4-(trifluoromethoxy)benzamide] here?
A: ≥ 50 µM

Q: What about the IC50 (wildtype Wnt pathway) of the same compound?
A: 0.25 µM

Q: `O=C(CN1CCOCC1)Nc1cc(C(=O)Nc2ncc(-c3ccccc3)s2)ccc1OC(F)(F)F` [Example 14, 3-[(morpholin-4-ylacetyl)amino]-N-(5-phenyl-1,3-thiazol-2-yl)-4-(trifluoromethoxy)benzamide] was tested. Which IC50 ([1]; Homo sapiens, HCT-116, 36 h) did it give?
A: ≥ 50 µM

Q: What about the IC50 (wildtype Wnt pathway) of the same compound?
A: 0.55 µM

Q: With `O=C(CN1CCOCC1)Nc1cc(NC(=O)c2ccc(-c3cc(F)cc(F)c3)nc2)ccc1OC(F)(F)F` [Example 27, 6-(3,5-difluorophenyl)-N-{3-[(morpholin-4-ylacetyl)amino]-4-(trifluoromethoxy)phenyl}nicotinamide] as the compound, how does the IC50 ([1]; Homo sapiens, HCT-116, 36 h) read?
A: ≥ 50 µM

Q: And the IC50 (wildtype Wnt pathway)?
A: 1 µM

Q: `CC(C(=O)Nc1cc(C(=O)Nc2ccc(-c3cccc(F)c3)nc2)ccc1OC(F)(F)F)N1CC2CCC(C1)O2` (stereo not shown) [Example 248, N-[6-(3-fluorophenyl)pyridin-3-yl]-3-{[2-(8-oxa-3-azabicyclo[3.2.1]oct-3-yl)propanoyl]amino}-4-(trifluoromethoxy)benzamide] was tested. Which IC50 [1] did it give?
A: ≥ 50 µM

Q: With `COc1ccc(C(=O)Nc2ccc(-c3ccccc3F)nc2)cc1NC(=O)CN1CC2CCC(C1)O2` [Example 2, N-[6-(2-fluorophenyl)pyridin-3-yl]-4-methoxy-3-[(8-oxa-3-azabicyclo[3.2.1]oct-3-ylacetyl)amino]benzamide] as the compound, how does the IC50 ([1]; Homo sapiens, HCT-116, 36 h) read?
A: ≥ 50 µM

Q: And the IC50 (wildtype Wnt pathway)?
A: 0.12 µM

Q: How did the IC50 ([1]; Homo sapiens, HCT-116, 36 h) turn out when `NC(=O)c1ccc(C(=O)Nc2ccc(-c3ccccc3F)nc2)cc1NC(=O)C1(N2CCOCC2)CC1` [Example 75, N^4-[6-(2-fluorophenyl)pyridin-3-yl]-2-({[1-(morpholin-4-yl)cyclopropyl]carbonyl}amino)terephthalamide] was run?
A: ≥ 50 µM

Q: And the IC50 (wildtype Wnt pathway)?
A: 0.027 µM

Q: How did the IC50 ([1]; Homo sapiens, HCT-116, 36 h) turn out when `O=C(CN1CCOCC1)Nc1cc(NC(=O)c2ccc(-c3cccc(F)c3)nc2)ccc1OC(F)(F)F` [Example 28, 6-(3-fluorophenyl)-N-{3-[(morpholin-4-ylacetyl)amino]-4-(trifluoromethoxy)phenyl}nicotinamide] was run?
A: ≥ 50 µM

Q: And the IC50 (wildtype Wnt pathway)?
A: 0.8 µM

Q: What does the source list for `O=C(Nc1nnc(-c2ccccc2)s1)c1ccc(OC(F)F)c(NC(=O)C2(N3CCOCC3)CC2)c1` [Example 37, 4-(difluoromethoxy)-3-({[1-(morpholin-4-yl)cyclopropyl]carbonyl}amino)-N-(5-phenyl-1,3,4-thiadiazol-2-yl)benzamide]?
A: IC50 ([1]; Homo sapiens, HCT-116, 36 h): ≥ 50 µM; IC50 (wildtype Wnt pathway): 0.28 µM

Q: For `O=C(CN1CCOCC1)Nc1cc(C(=O)Nc2ccc(-c3ccccc3)cn2)ccc1OC(F)(F)F` [Example 131, 3-[(morpholin-4-ylacetyl)amino]-N-(5-phenylpyridin-2-yl)-4-(trifluoromethoxy)benzamide], which IC50 ([1]; Homo sapiens, HCT-116, 36 h) is on record?
A: ≥ 50 µM

Q: And the IC50 (wildtype Wnt pathway)?
A: 0.1 µM

Q: For `O=C(Nc1ccc(OC(F)(F)F)c(NC(=O)C2(N3CCOCC3)CC2)c1)c1ccc(-c2cc(F)cc(F)c2)nc1` [Example 60, 6-(3,5-difluorophenyl)-N-[3-({[1-(morpholin-4-yl)cyclopropyl]carbonyl}amino)-4-(trifluoromethoxy)phenyl]nicotinamide], which IC50 ([1]; Homo sapiens, HCT-116, 36 h) is on record?
A: ≥ 50 µM

Q: What about the IC50 (wildtype Wnt pathway) of the same compound?
A: 0.29 µM

Q: Which IC50 (wildtype Wnt pathway) does the source give for `CC(C(=O)Nc1cc(C(=O)Nc2nnc(-c3ccccc3)s2)ccc1OC(F)(F)F)N1CCN(C)CC1` (stereo not shown) [Example 58, 3-{[2-(4-methylpiperazin-1-yl)propanoyl]amino}-N-(5-phenyl-1,3,4-thiadiazol-2-yl)-4-(trifluoromethoxy)benzamide] here?
A: 0.27 µM

Q: What does the source list for `COc1ccc(-c2ccc(C(=O)Nc3ccc(OC)c(NC(=O)CN4CCOCC4)c3)s2)cc1` [Example 35, N-{4-methoxy-3-[(morpholin-4-ylacetyl)amino]phenyl}-5-(4-methoxyphenyl)thiophene-2-carboxamide]?
A: IC50 ([1]; Homo sapiens, HCT-116, 36 h): ≥ 50 µM; IC50 (wildtype Wnt pathway): 0.91 µM

Q: `COCc1ccc(C(=O)Nc2nnc(-c3ccccc3)s2)cc1NC(=O)C1(N2CCN(C3CC3)CC2)CC1` [Example 44, 3-({[1-(4-cyclopropylpiperazin-1-yl)cyclopropyl]carbonyl}amino)-4-(methoxymethyl)-N-(5-phenyl-1,3,4-thiadiazol-2-yl)benzamide] was tested. Which IC50 ([1]; Homo sapiens, HCT-116, 36 h) did it give?
A: ≥ 50 µM

Q: What about the IC50 (wildtype Wnt pathway) of the same compound?
A: 0.196 µM

Q: Which IC50 ([1]; Homo sapiens, HCT-116, 36 h) does the source give for `O=C(Nc1ccc(-c2ccccc2)cn1)c1ccc(OC(F)(F)F)c(NC(=O)C2(N3CCOCC3)CC2)c1` [Example 95, 3-({[1-(morpholin-4-yl)cyclopropyl]carbonyl}amino)-N-(5-phenylpyridin-2-yl)-4-(trifluoromethoxy)benzamide] here?
A: ≥ 50 µM

Q: What about the IC50 (wildtype Wnt pathway) of the same compound?
A: 0.05 µM

Q: With `CC(C(=O)Nc1cc(C(=O)Nc2nnc(-c3ccccc3)s2)ccc1OC(F)(F)F)N1CCOCC1` (stereo not shown) [Example 241, 3-{[2-(morpholin-4-yl)propanoyl]amino}-N-(5-phenyl-1,3,4-thiadiazol-2-yl)-4-(trifluoromethoxy)benzamide] as the compound, how does the IC50 ([1]; Homo sapiens, HCT-116, 36 h) read?
A: ≥ 50 µM

Q: With `O=C(Nc1ccc(-c2ccccc2F)nc1)c1ccc(OC(F)(F)F)c(NC(=O)C2(N3CCOCC3)CC2)c1` [Example 68, N-[6-(2-fluorophenyl)pyridin-3-yl]-3-({[1-(morpholin-4-yl)cyclopropyl]carbonyl}amino)-4-(trifluoromethoxy)benzamide] as the compound, how does the IC50 ([1]; Homo sapiens, HCT-116, 36 h) read?
A: ≥ 50 µM

Q: And the IC50 (wildtype Wnt pathway)?
A: 0.00517 µM

Q: `O=C(CN1CCN(C2CC2)CC1)Nc1cc(C(=O)Nc2nnc(-c3ccccc3)s2)ccc1OC(F)(F)F` [Example 53, 3-{[(4-cyclopropylpiperazin-1-yl)acetyl]amino}-N-(5-phenyl-1,3,4-thiadiazol-2-yl)-4-(trifluoromethoxy)benzamide] was tested. Which IC50 ([1]; Homo sapiens, HCT-116, 36 h) did it give?
A: ≥ 50 µM

Q: What about the IC50 (wildtype Wnt pathway) of the same compound?
A: 0.82 µM

Q: How did the IC50 ([1]; Homo sapiens, HCT-116, 36 h) turn out when `O=C(Nc1ccc(-c2ccccc2F)nc1)c1ccc(Cl)c(NC(=O)C2(N3CCOCC3)CC2)c1` [Example 79, 4-chloro-N-[6-(2-fluorophenyl)pyridin-3-yl]-3-({[1-(morpholin-4-yl)cyclopropyl]carbonyl}amino)benzamide] was run?
A: ≥ 50 µM

Q: What about the IC50 (wildtype Wnt pathway) of the same compound?
A: 0.064 µM

Q: Which IC50 (wildtype Wnt pathway) does the source give for `O=C(CN1CC2CCC(C1)O2)Nc1cc(C(=O)Nc2ccc(-c3ccccc3F)nc2)ccc1OC(F)(F)F` [Example 6, N-[6-(2-fluorophenyl)pyridin-3-yl]-3-[(8-oxa-3-azabicyclo[3.2.1]oct-3-ylacetyl)amino]-4-(trifluoromethoxy)benzamide] here?
A: 0.013 µM

Q: Which results are given for `O=C(Nc1nnc(-c2ccccc2)s1)c1ccc(OC(F)(F)F)c(NC(=O)C2(N3CCN(C4CC4)CC3)CC2)c1` [Example 51, 3-({[1-(4-cyclopropylpiperazin-1-yl)cyclopropyl]carbonyl}amino)-N-(5-phenyl-1,3,4-thiadiazol-2-yl)-4-(trifluoromethoxy)benzamide]?
A: IC50 ([1]; Homo sapiens, HCT-116, 36 h): ≥ 50 µM; IC50 (wildtype Wnt pathway): 0.373 µM

Q: How did the IC50 ([1]; Homo sapiens, HCT-116, 36 h) turn out when `O=C(CN1CCN(C2CC2)CC1)Nc1cc(C(=O)Nc2nnc(-c3ccccc3)s2)ccc1OC(F)F` [Example 41, 3-{[(4-cyclopropylpiperazin-1-yl)acetyl]amino}-4-(difluoromethoxy)-N-(5-phenyl-1,3,4-thiadiazol-2-yl)benzamide] was run?
A: ≥ 50 µM

Q: And the IC50 (wildtype Wnt pathway)?
A: 0.72 µM

Q: Which results are given for `CN1CCN(C2(C(=O)Nc3cc(C(=O)Nc4nnc(-c5ccccc5)s4)ccc3CS(C)(=O)=O)CC2)CC1` [Example 49, 3-({[1-(4-methylpiperazin-1-yl)cyclopropyl]carbonyl}amino)-4-[(methylsulfonyl)methyl]-N-(5-phenyl-1,3,4-thiadiazol-2-yl)benzamide]?
A: IC50 ([1]; Homo sapiens, HCT-116, 36 h): ≥ 50 µM; IC50 (wildtype Wnt pathway): 0.045 µM

Q: How did the IC50 ([1]; Homo sapiens, HCT-116, 36 h) turn out when `CC(C(=O)Nc1cc(C(=O)Nc2ccc(-c3ccccc3F)nc2)ccc1OC(F)(F)F)N1CCN(C)CC1` (stereo not shown) [Example 64, N-[6-(2-fluorophenyl)pyridin-3-yl]-3-{[2-(4-methylpiperazin-1-yl)propanoyl]amino}-4-(trifluoromethoxy)benzamide] was run?
A: ≥ 50 µM

Q: With “N-[6-(2-fluorophenyl)pyridin-3-yl]-3-{[(2S)-2-(4-methylpiperazin-1-yl)propanoyl]amino}-4-(trifluoromethoxy)benzamide or N-[6-(2-fluorophenyl)pyridin-3-yl]-3-{[(2R)-2-(4-methylpiperazin-1-yl)propanoyl]amino}-4-(trifluoromethoxy)benzamide [Example 66]” as the compound, how does the IC50 (wildtype Wnt pathway) read?
A: 0.13 µM

Q: How did the IC50 ([1]; Homo sapiens, HCT-116, 36 h) turn out when `CC(C(=O)Nc1cc(C(=O)Nc2ccc(-c3ccccc3F)nc2)ccc1OC(F)(F)F)N1CCOCC1` (stereo not shown) [Example 7, N-[6-(2-fluorophenyl)pyridin-3-yl]-3-{[2-(morpholin-4-yl)propanoyl]amino}-4-(trifluoromethoxy)benzamide] was run?
A: ≥ 50 µM

Q: `O=C(Nc1ccc(-c2ccccc2F)nc1)c1ccc(OC2CC2)c(NC(=O)C2(N3CCN(C4CC4)CC3)CC2)c1` [Example 136, 4-(cyclopropyloxy)-3-({[1-(4-cyclopropylpiperazin-1-yl)cyclopropyl]carbonyl}amino)-N-[6-(2-fluorophenyl)pyridin-3-yl]benzamide] was tested. Which IC50 ([1]; Homo sapiens, HCT-116, 36 h) did it give?
A: ≥ 50 µM

Q: And the IC50 (wildtype Wnt pathway)?
A: 0.075 µM

Q: Which IC50 ([1]; Homo sapiens, HCT-116, 36 h) does the source give for `O=C(Nc1nnc(-c2ccccc2)s1)c1ccc(OC(F)F)c(NC(=O)C2(N3CCN(C4CC4)CC3)CC2)c1` [Example 38, 3-({[1-(4-cyclopropylpiperazin-1-yl)cyclopropyl]carbonyl}amino)-4-(difluoromethoxy)-N-(5-phenyl-1,3,4-thiadiazol-2-yl)benzamide] here?
A: ≥ 50 µM

Q: What about the IC50 (wildtype Wnt pathway) of the same compound?
A: 0.2 µM
